Source: patent publication US20070258889A1, “NOVEL NANOPARTICLES AND USE THEREOF” (Montana State University, priority 2005, published 2007)

What was measured:
non-cancerous T cells = experiment: FACS control experiment with non-cancerous T cells; format: cell-based; conditions: fluorescein labeled cages
Description: Fluorescence activated cell sorting (FACS) analysis of C32 cell s incubated with fluorescein conjugated RGD4C-Fn. Flow cytometry was performed on a FACSCalibur, (Becton Dickinson, Mountain View, Calif.) and analyzed using Cell Quest software (Becton Dickinson, Mountain View, Calif.). In order to perform the analysis, C32 cells were non-enzymatically removed from cell culture dishes by DPBS (without Ca2+ and Mg2+) with 1% ethylenediaminetetraacetic acid (EDTA), washed once with serum containing MEME and then suspended in DPBS (with Ca2+ and Mg2+). The cells were incubated with fluorescently labeled protein cages (normalized to 2 μM fluorescein) in DPBS (with Ca2+ and Mg2+) at a concentration of 2.5×10^6 cell/ml on ice for 20 min. After the incubation, the cells were washed 2 times with DPBS (with Ca2+ and Mg2+) and then resuspended in DPBS (with Ca2+ and Mg2+).

C32 cells = experiment: Cell targeting assay of mineralized RGD4C-Fn (TEM of thin-sectioned C32 cells); format: cell-based, Human; conditions: mineralized cages 3000 Fe/cage, 200 μg/ml, 37° C., 30 min
Description: Cell targeting assay of mineralized RGD4C-Fn. The mineralized RGD4C-Fn with a loading factor of 3000 Fe/cage was used to evaluate the ability of the protein cage to target cancer cells. […] C32 cells were cultured in a six-well polystyrene plate. After 2 days of incubation, MEME was removed from the well followed by addition of 1 ml of mineralized protein (200 μg/ml) in Dulbecco's Phosphate Buffered Saline (DPBS) and then incubated at 37° C. for 30 min. After the incubation, the solution was aspirated and washed 2 times with DPBS. Cells were fixed in 3% glutalaldehyde in 0.1 M potassium sodium phosphate buffer (PSPB) at pH 7.2 for 10 min at room temperature. Following removal of gultalaldehyde, 1 ml DPBS was added and cells were scraped using a rubber policeman and then centrifuged. Cell pellets were mixed with 50 μl of 4% agar solution and allowed to solidify. Agar pellets were then placed in 3% gultalaldehyde in PSPB overnight at 4° C. Glutalaldehyde was removed and pellets were rinsed 2× with PSPB for 10 min each time. The pellets were then fixed for 4 h at room temperature followed by dehydrations steps of 50%, 50%, 70%, 95%, 100%, 100% and 100% ethanol for 10 min each. […] The surface length of the cells were measured and the number of iron oxide clusters were counted on each image, to estimate the number of cluster per μm of cell surface.

## HFn: human H-chain ferritin cage, non-targeted control
non-cancerous T cells
  Geo. mean fluorescence intensity value of non-cancerous T cells: 25
C32 cells
  number density of iron oxide clusters on cell surface, lower than for cells incubated with RGD4C-Fn cages: roughly 50%
